# Target: T1, PACE4 (Homo sapiens, UniProt P07339)
# T1 construct: The enzyme of the present invention prepared from PC-3 culture supernatant; endogenous in cells; host or cells: PC-3 human prostate cancer cells, serum-free culture supernatant, purified by chromatography
# T1 sequence (P07339 21-412): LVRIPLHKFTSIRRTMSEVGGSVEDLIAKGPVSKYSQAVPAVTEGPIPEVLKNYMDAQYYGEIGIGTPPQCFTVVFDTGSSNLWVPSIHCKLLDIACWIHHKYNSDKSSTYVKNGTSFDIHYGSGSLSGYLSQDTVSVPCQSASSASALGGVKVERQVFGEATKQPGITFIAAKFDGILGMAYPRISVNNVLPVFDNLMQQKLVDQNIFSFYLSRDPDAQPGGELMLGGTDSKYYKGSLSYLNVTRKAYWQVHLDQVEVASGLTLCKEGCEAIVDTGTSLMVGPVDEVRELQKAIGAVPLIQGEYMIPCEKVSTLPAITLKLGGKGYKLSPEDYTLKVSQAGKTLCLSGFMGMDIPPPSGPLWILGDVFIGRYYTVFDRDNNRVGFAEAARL
# Assay: Inhibition of the purified PACE4 by various protease inhibitors (FIG. 5)
# Format: biochemical
# Settings: pepstatin A 1 μM
# Protocol: A mode of the inhibitory activity of the enzyme of the present invention is summarized in FIG. 5 wherein a concentration of each inhibitor was: aprotinin (0.3 μM), benzamidine (10 mM), elastinal (100 μM), pepstatin A (1 μM), and EDTA (10 mM). […] FIG. 6 depicts fragmentation patterns of plasminogen when reacted at neutral and acidic ranges of pH. […] In FIG. 6, the arrow A (→A) indicates a band corresponding to angiostatin from PC-3 according to Gately et al. whereas the arrow B (→B) indicates a band corresponding to a fragment comprising Kringles 1 to 4 produced by PACE4. […] The N-terminal amino acid residue of each fragment was analyzed to be F-74 for A, P-452 for B and A-700 for C, respectively.
# FIG. 2 schematically illustrates procedures for screening PACE4 wherein anti-Mini Plasminogen antibody is used as an immobilized antibody whereas antibody directed to Kringles 1 to 3 of plasminogen is used as a labeled antibody. A predetermined amount of plasminogen and samples are mixed together and the mixture is added to this system. If plasminogen is cleaved at between Kringle 4 and Mini Plasminogen, a color development will become declined in proportion to a degree of the cleavage. An enzyme level is determined based on a rate of this decline in color development. […]
smiles,measurement,value
CC(C)CC(=O)N[C@H](C(=O)N[C@H](C(=O)N[C@@H](CC(C)C)[C@@H](O)CC(=O)N[C@@H](C)C(=O)N[C@@H](CC(C)C)[C@@H](O)CC(=O)O)C(C)C)C(C)C [pepstatin A],activity of the enzyme of the present invention in presence of inhibitor,completely inhibited

# From patent US20070117180A1, “Enzyme producing plasma protein fragment having inhibitory activity to metastasis and growth of cancer and plasma protein fragment produced by fragmentation by said enzyme” (priority 1998, published 2007)
